Measured values: patent US20130324439A1, “Elastic Modulus-modified MicroEnvironment microArrays (eMEArrays) and Uses Thereof” (The Regents of the University of California, priority 2012, published 2013)

Tested on: HER2+ breast cancer cell line HCC1569
Experiment: EdU incorporation (DNA synthesis) of HCC1569 on 2D tissue culture plastic, PA gels of tuned elastic modulus or 3D Matrigel

O=S(=O)(c1cccc2c(I)cccc12)N1CCCNCC1 [ML-7]
Effect of lapatinib and ML-7 together on cells atop 2D TC plastic or compliant PA gels: synergistic and toxic effect
